Columns and labels:
[1] = system: PIV
[2] = system: HHV-6A
[3] = system: VZV
[4] = system: HSV2
[5] = system: HSV1
[6] = system: RSV A (A2)
[7] = system: HHV-6B
[8] = system: Punta Toro-Adames

Substance	Therapeutic Index (CC50/IC50) [1]	Therapeutic Index (CC50/IC50) [2]	Therapeutic Index (CC50/IC50) [3]	Therapeutic Index (CC50/IC50) [4]	Therapeutic Index (CC50/IC50) [5]	Therapeutic Index (CC50/IC50) [6]	Therapeutic Index (CC50/IC50) [7]	Therapeutic Index (CC50/IC50) [8]
hydroxypropyl methylcellulose trimellitate [HPMCT]	1	35	0	>80	>133	>100	4	–
poly styrene alt maleic acid [PSMA]	–	–	–	–	–	–	–	>100

— US20070148124A1, “Cellulose and acrylic based polymers and the use thereof for the treatment of infectious diseases” (priority 2004, published 2007)
